For 99 compounds, relative growth results are on record in published antibiotic growth screens (doi:10.1038/s41589-023-01349-8).

SMILES strings stand for the structures. This is one part of the list.

The subject of the assay is A. baumannii ATCC 17978. The experiment in a line: relative growth (fraction of control); higher = less inhibition. Particulars: 50 µM.
In the case of `NNC(=O)c1c(O)c2c([nH]c1=O)CCCC2`, the relative growth was determined as 0.887.
The same measure for `S=C1C=C(N2CCCCC2)C[C@H](c2ccc(Cl)cc2)S1`: 0.642; for `C[C@H]1CN([C@@H](C)CO)S(=O)(=O)c2ccc(C#Cc3ccccc3F)cc2O[C@@H]1CN(C)CC1CCOCC1`: 0.994.
The figure for `NC1=NN(c2ccccc2)C(=O)C1` is 0.52; for `Nc1ncnc2c1ncn2[C@H]1CC[C@@H](CO)O1` it is 1.04; for `Nc1ccc(-n2cc(CCC(=O)NO)nn2)cc1` it is 1.1.
`OC[C@@H](O)[C@@H](O)[C@H](O)[C@@H](O)CO`: the relative growth turned out to be 1.1.
The same measure for `COc1cccc(S(=O)(=O)N(C)C[C@H]2Oc3cc(C#CCN(C)C)ccc3S(=O)(=O)N([C@H](C)CO)C[C@H]2C)c1`: 0.836.
`CN1CCN(C(=O)C[C@H]2C[C@@H]3c4cc(NC(=O)c5ccc6c(c5)OCO6)ccc4O[C@@H]3[C@H](CO)O2)CC1` returned a relative growth of 1.04.
The figure for `CCCCOC(=O)CSc1n[nH]c(=O)[nH]c1=O` is 0.921; for `Cc1ccc(S[C@]2(C(=O)NCCCN(C)C)CC(=O)N(C3CCCCC3)[C@@H]2c2ccc(CO)cc2I)cc1` it is 0.986; for `O=C(C[C@H]1C=C[C@H](NC(=O)CN2CCOCC2)[C@@H](CO)O1)NC1CCCCC1` it is 0.953.
The figure for `Cn1sc(=O)n(Cc2ccccc2)c1=O` is 0.28.
The figure for `O=C(O)CC1(n2cnnn2)CCSCC1` is 1.07; for `CC(C)=CC1C(C(=O)O)C1(C)C` (centres undefined) it is 0.907; for `[N-]=[N+]=Nc1ccccc1C[C@]1(C(=O)N2CCCCC2)N=C(c2ccc(OCCCO)cc2)O[C@H]1c1ccccc1` it is 1.11.
The compound `O=C(c1cccnc1)N1CCOCC1` registered a relative growth of 1.34.
The compound `OCC(S)CS` (centres undefined) displayed a relative growth of 1.76.
The figure for `O=C(N/N=C/[C@@H](O)[C@H](O)[C@H](O)CO)c1ccccc1O` is 1.02.
The same measure for `Cc1ccnn1-c1ccc(CN)cc1`: 1.07.
Consider `Cl.Cl.NCCc1c[nH]cn1`, for which the relative growth is 0.961.
The figure for `O=C(C[C@H]1CC[C@@H](NS(=O)(=O)c2ccccc2)[C@@H](CO)O1)NCc1ccncn1` is 0.934; for `O=C(CN1CCOCC1)NCC[C@@H]1CC[C@@H](NC(=O)Nc2ccccc2)[C@H](CO)O1` it is 1.05; for `CCCC#Cc1ccc2c(c1)O[C@H](CN(C)C(=O)c1cnccn1)[C@H](C)CN([C@H](C)CO)S2(=O)=O` it is 0.989.
In turn, `Cc1ccc(S(=O)(=O)N[C@@H]2CC[C@@H](CCNC(=O)CN3CCOCC3)O[C@@H]2CO)cc1` yielded a relative growth of 0.993.
The figure for `N=C(N)Nc1nc(CSCC/C(N)=N\S(N)(=O)=O)cs1` is 0.999; for `CC(C)c1c(O)ccc2c1CCC1C(C)(C)CCC[C@]21C` (some centres undefined) it is 1.01; for `CCCCCN(C)CCC(O)(P(=O)([O-])O)P(=O)(O)O.O.[Na+]` it is 1.
The same measure for `Cn1cnc(S(=O)(=O)N[C@H]2CC[C@@H](CC(=O)NCC3CC3)O[C@@H]2CO)c1`: 1.09; for `O=c1c(O)nnc2n1CCN2c1ccccc1`: 0.873.
`COc1ccc(S(=O)(=O)N[C@@H]2CC[C@@H](CCNC(=O)CN3CCOCC3)O[C@@H]2CO)cc1` registered a relative growth of 1.04.
The same measure for `NCCOc1cccc(Cl)c1`: 0.984; for `NC(=O)C1(N2CCCCC2)CCN(CCCC(=O)c2ccc(F)cc2)CC1`: 0.974.
The same measure for `O=c1[nH]c2ccccc2n2cnnc12`: 1.04; for `C[C@@H]1CC2C3C[C@H](F)C4=CC(=O)C=C[C@]4(C)[C@@]3(F)[C@@H](O)C[C@]2(C)[C@@]1(O)C(=O)COC(=O)C(C)(C)C` (some centres undefined): 1.06; for `C[C@@H](O)CN1C(=S)S[C@@H]2CS(=O)(=O)C[C@@H]21`: 0.953.
The same measure for `Cl.NC[C@H](N)C(=O)O`: 0.851; for `O=C(O)CCc1nc2ccccc2[nH]1`: 1.24; for `COc1ccc(S(=O)(=O)N[C@H]2C=C[C@@H](CC(=O)NCCc3ccncc3)O[C@@H]2CO)cc1`: 0.992.
For `CC(C)C[C@H](N)C(=O)O`, the relative growth was 0.85.
As for `Nc1nccs1`, the relative growth came out at 1.03.
The same measure for `CN(CC(=O)NC1CCCC1)S(=O)(=O)c1ccc2c(c1)c(=O)n(C)c(=O)n2C`: 1.04.
The same measure for `C=CCNC(=O)[C@@H]1[C@H]2C(=O)O[C@H](c3ccccc3)[C@H](c3ccccc3)N2[C@H](c2ccc(OCCO)cc2)[C@@]12C(=O)Nc1ccc(C#CC3(O)CCCCCC3)cc12`: 1.15.
The same measure for `CCOc1ccc(S(N)(=O)=O)cc1`: 1.
`NC(=O)c1cccnc1` registered a relative growth of 1.02.
The figure for `N=c1cc(N2CCCCC2)nc(N)n1OS(=O)(=O)O` is 1.05; for `Cc1ccc(S(=O)(=O)N[C@@H]2CC[C@H](CC(=O)NCc3ccc(Cl)c(Cl)c3)O[C@@H]2CO)cc1` it is 0.805.
The figure for `C=C(C)C1=NC(C)(C)C[C@H](C)O1` is 1.1; for `Cc1nnc(=O)[nH]c1NNc1ccccc1` it is 0.745; for `CNC(=O)C(=O)Nc1cc(Cl)ccc1C#N` it is 0.959.
The same measure for `Cn1cnc(S(=O)(=O)N2C[C@@H](O)COC[C@@H]3O[C@@H](CC(=O)NC4CCC4)CC[C@H]32)c1`: 0.949; for `Cn1c(=O)c2c(ncn2CC(O)CO)n(C)c1=O` (centres undefined): 1.13; for `CC(C)c1nc2cc3sc(C(C)C)nc3cc2s1`: 1.21.
In turn, `O=C(C[C@H]1CC[C@@H](NC(=O)c2cccnc2)[C@@H](CO)O1)NCCN1CCCCC1` displayed a relative growth of 1.04.
The same measure for `O=C(C[C@H]1CC[C@@H](NS(=O)(=O)c2ccccc2F)[C@H](CO)O1)NCCCN1CCOCC1`: 0.849; for `COc1ccc2c(c1OC)C(=O)O[C@H]2[C@H]1c2c(cc3c(c2OC)OCO3)CCN1C.Cl`: 0.898.
`CC(=O)O.Cc1c(-c2ccc(O)cc2)n(Cc2ccc(OCCN3CCCCCC3)cc2)c2ccc(O)cc12`: the relative growth amounted to 0.807.
For the compound `COc1cccc(NC(=O)N[C@@H]2C=C[C@H](CC(=O)N3CCOCC3)O[C@H]2CO)c1`, the relative growth turned out to be 0.893.
The same measure for `CC(C)(Oc1ccc(C2CC2(Cl)Cl)cc1)C(=O)O` (centres undefined): 1.32; for `C[C@H](CO)N1C[C@H](C)[C@@H](CN(C)S(=O)(=O)c2ccc3ccccc3c2)OCc2cnnn2CCCC1=O`: 0.974; for `C#CCN([C@H](/C=C/C1CC1)[C@@H](O)CCn1cc(-c2ccc(C(=O)NO)s2)nn1)[C@@H](Cc1ccccc1)C(=O)OC`: 1.13.
The same measure for `O=C(CN1CCOCC1)N[C@H]1CC[C@H](CCNC(=O)C2CCCCC2)O[C@@H]1CO`: 1.03; for `COc1cccc(S(=O)(=O)N[C@@H]2C=C[C@H](CC(=O)NC3CCC3)O[C@H]2CO)c1`: 1.06.
The same measure for `N[C@H]1CS(=O)(=O)c2ccccc21`: 1.11; for `CNC[C@H](O)c1cccc(O)c1.Cl`: 1.15; for `O=C(C[C@@H]1CC[C@H]2[C@@H](COC[C@@H](O)CN2C(=O)c2ccccc2)O1)N1CCOCC1`: 0.998.
`CC(C)(C)OC(=O)CC[C@@]12N=C(c3ccc(OCCCO)cc3)O[C@@H]1c1ccccc1CN(C(=O)c1ccccc1)C2=O` yielded a relative growth of 1.06.
In the case of `Cl.O=C(Nc1ccccc1)OCC(CN1CCCCC1)OC(=O)Nc1ccccc1` (centres undefined), the relative growth stood at 0.749.
The same measure for `C[C@H]1CN([C@@H](C)CO)C(=O)CCCn2nncc2CO[C@@H]1CN(C)C(=O)Nc1cccc2ccccc12`: 0.918; for `COc1ccc2c(c1)OC(C)(C)C[C@@H]2N`: 1.02.
`O=c1cc(Cl)[nH]c(=O)[nH]1` had a relative growth of 1.01.
The same measure for `O=C(NCCO)c1cccc(C(=O)NCCO)c1`: 1.01; for `NCCN1C(=O)c2[nH]nc(-c3ccccc3)c2[C@H]1c1ccccc1`: 0.966; for `CC/N=C1\S[C@H](C(N)=O)CC(=O)N1CC`: 1.05.
The same measure for `COc1nn(C)cc1C(=O)N1CCN(C)CC1`: 0.986; for `COc1cccc(NC(=O)N[C@H]2C=C[C@H](CC(=O)N3CCN(C)CC3)O[C@@H]2CO)c1`: 0.952; for `CC(C)NC(=O)N[C@@H]1CC[C@@H](CCN)O[C@H]1CO`: 0.941.
The same measure for `CC[C@@H](CN)Cc1ccccc1`: 1.02; for `CO[C@@H]1CN(C)C(=O)c2cc(NS(C)(=O)=O)ccc2OC[C@@H](C)N(C(=O)C2CCCCC2)C[C@@H]1C`: 0.986.
In turn, `C[C@@]1(C(=O)O)CCCC[C@@H]1N` registered a relative growth of 0.92.
`O=C(C[C@H]1CC[C@@H]2[C@H](COC[C@H](O)CN2C(=O)Nc2cc(Cl)cc(Cl)c2)O1)N1CCOCC1` returned a relative growth of 0.968.
As to `O=C1C(=CNC(CO)(CO)CO)C(=O)c2ccccc21`, the relative growth was determined as 0.974.
For `O=C(N[C@@H]1CC[C@@H](CCNS(=O)(=O)c2ccc(F)cc2)O[C@@H]1CO)C1CC1`, the relative growth amounted to 1.01.
The same measure for `C[C@@H]1CN([C@@H](C)CO)S(=O)(=O)c2ccc(/C=C/c3ccccc3)cc2O[C@H]1CN(C)C(=O)Nc1cc(F)ccc1F`: 1.02; for `c1ccc(-c2nc3ccccc3o2)nc1`: 0.901.
`O=c1cc(-c2ccccc2)oc2ccc(O)cc12` gave a relative growth of 0.899.
The same measure for `C[C@@H]1CN([C@@H](C)CO)S(=O)(=O)c2ccc(Br)cc2O[C@H]1CN(C)C(=O)c1cnccn1`: 1.1.
Consider `CCC(=O)Nc1ccc2c(c1)OC[C@H](C)N(C(=O)CN1CCOCC1)C[C@@H](C)[C@H](OC)CN(C)C2=O`, for which the relative growth worked out at 1.08.
The same measure for `CCC(=O)Oc1ccc2c(c1)CCC1C2CC[C@@]2(C)C1C[C@@H](OC(=O)CC)[C@@H]2OC(=O)CC` (some centres undefined): 1.1; for `C[C@H](CO)N1C[C@H](C)[C@H](CN(C)Cc2cncnc2)Oc2cc(C#CC3CCCC3)ccc2S1(=O)=O`: 0.773.
The figure for `Clc1ccc(/N=C/c2ccc(Br)o2)cc1Cl` is 1.06; for `C=CCC[C@@H](Cc1ccc(F)cc1)C(=O)OC[C@@H](NC(=O)[C@@H](CC=C)CC(=O)N[C@@H](CO)Cc1ccccc1)C(C)(C)C` it is 0.829; for `Cc1ccccc1S(=O)(=O)N(C)C[C@@H]1Oc2ccc(NC(=O)Nc3ccc(Cl)c(Cl)c3)cc2CC(=O)N([C@@H](C)CO)C[C@@H]1C` it is 1.15.
The same measure for `O=C(c1ccc(F)cc1)N1c2ccccc2C=Cc2ccccc21`: 0.924.
`CCCNS(=O)(=O)c1c[nH]c(C(=O)OC)c1` showed a relative growth of 1.1.
As for `Nc1ccc(S(N)(=O)=O)cc1`, the relative growth was determined as 0.993.
The same measure for `Oc1ccccc1/N=C/c1ccncc1`: 0.503; for `NC[C@H](O)c1ccc(O)c(O)c1.O=C(O)[C@H](O)[C@@H](O)C(=O)O`: 1.09; for `COc1ccc(C(=O)Nc2ccc(CN3C(=O)[C@]4(O[C@H](CC(=O)N5Cc6ccccc6C[C@H]5CO)[C@@H]([Si](C)(C)c5ccc(OC)cc5)[C@@H]4C)c4ccccc43)cc2)cc1`: 0.979.
